Measured melting point values of organic chemicals

Data: OPERA 2.9 data sets, kmansouri/OPERA on GitHub.

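These are experimental values that the OPERA curators gathered from public databases to train and test their QSAR models. One number stands for a compound and property, with no spread given. Method, purity and exact conditions of the single measurements are not given. Where a salt, mixture or single isomer is drawn, the source does not say that exactly this form was tested. Unmarked limits or estimates from the upstream databases cannot be ruled out.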

Melting points are in °C.
The databases behind each value are named after "via".

- Cc1n[nH]c(=S)n1Cc1ccccc1: MP 165 °C (via OCHEM)
- O=c1[nH]c(CCl)nc2scc(-c3ccc(Cl)cc3)c12: MP 125 °C (via OCHEM)
- Cc1[nH]c2ccccc2c1C(=O)CCl: MP 228 °C (via OCHEM)
- CCCCCCCCCCCCCCCCCC(=O)OCCCCCCCCCCCCCC: MP 45.9 °C (via eChemPortal)
- N#CCC(=O)c1ccc(Cl)cc1Cl: MP 63 °C (via OCHEM)
- CC(=O)OCCS(=O)(=O)c1ccc(N2CCC(c3cc(Cl)c(Cl)cc3C)=N2)cc1: MP 189 °C (via eChemPortal)
- CSc1nn(-c2ccccc2)c(N)c1C#N: MP 136 °C (via OCHEM)
- CCOc1ccc(C(C)=O)cc1OCC: MP 50 °C (via OCHEM)
- Cc1nc2ccccc2n1CCO: MP 148 °C (via OCHEM)
- N=C(NO)C12CC3CC(CC(C3)C1)C2: MP 153 °C (via OCHEM)
- CC(=O)c1ccc(S(=O)(=O)N(C)C)cc1: MP 100 °C (via OCHEM)
- CSc1ccc([N+](=O)[O-])c(C(=O)O)c1: MP 177 °C (via OCHEM)
- Cc1cc(C)n(CC(=O)NN)n1: MP 103 °C (via OCHEM)
- O=C(CCl)Nc1cc(C2CC2)nn1-c1ccccc1: MP 121 °C (via OCHEM)
- COC(=O)c1cc(Cl)cc(N)c1Cl: MP 57 °C (via QSARDB)
- CCOC(=O)c1c(C)noc1N: MP 134 °C (via OCHEM)
- Nc1nnc(Cc2ccccc2)s1: MP 174 °C (via OCHEM)
- Cc1cc(F)c2c(c1)C(=O)C(=O)N2: MP 226 °C (via OCHEM)
- COc1ccc(C(=O)Nc2ccccc2CCC2CCCCN2C)cc1.Cl (configuration not stated): MP 132 °C (via OCHEM)
- O=C(O)c1ccc(NC(=O)c2ccco2)cc1: MP 133 °C (via OCHEM)
- O=C(O)c1cn(-c2ccccc2)nc1-c1ccccc1: MP 203 °C (via OCHEM)
- O=C(O)c1cc(N2CCOCC2)ccc1[N+](=O)[O-]: MP 190 °C (via OCHEM)
- O=C(O)Cn1cc(Br)c(=O)[nH]c1=O: MP 267 °C (via OCHEM)
- O=C(O)c1ccc(N2C(=O)CCC2=O)cc1: MP 211 °C (via OCHEM)
- COc1cc(NC(=O)Cc2cccs2)c(C(=O)O)cc1OC: MP 196 °C (via OCHEM)
- Cc1cc(-c2ccccc2)nc2cc(=O)[nH]n12: MP 232 °C (via OCHEM)
- CC(C)(C)N(NC(=O)c1ccccc1)C(=O)c1ccccc1Cl: MP 162 °C (via OCHEM)
- NNS(=O)(=O)c1ccc(Br)cc1: MP 226 °C (via OCHEM)
- Cc1cc(C)c(NC(=O)CCl)c(C)c1: MP 155 °C (via OCHEM)
- O/N=C/c1ccc(OCc2ccccc2)cc1: MP 110 °C (via OCHEM)
- CC(O)CN(CC(C)O)c1nc(Nc2ccc(S(=O)(=O)[O-])cc2)nc(Nc2ccc(/C=C/c3ccc(Nc4nc(Nc5ccc(S(=O)(=O)[O-])cc5)nc(N(CC(C)O)CC(C)O)n4)cc3S(=O)(=O)[O-])c(S(=O)(=O)[O-])c2)n1.[Na+].[Na+].[Na+].[Na+] (stereo partly drawn): MP 393.5 °C (via OFMPub, eChemPortal)
- Nc1ccc(-c2ccccc2)nn1: MP 146 °C (via OCHEM)
- Brc1cnc2ncnn2c1: MP 185 °C (via OCHEM)
- c1csc(-c2nn[nH]n2)c1: MP 202 °C (via OCHEM)
- Nc1nc(-c2ccc(Oc3ccccc3)cc2)cs1: MP 196 °C (via OCHEM)
- CC(=O)OCCOC(C)C: MP -69.5 °C (via eChemPortal)
- O=C(O)CCN1C(=O)CSc2ccccc21: MP 145 °C (via OCHEM)
- Nc1ccc(-c2nc3ccccc3s2)cc1: MP 150 °C (via OCHEM)
- C=CCCCCCCCCC(=O)OCCCCCCC: MP -15 °C (via eChemPortal)
- O=C(O)CSC(O)C(=O)c1ccccc1 (configuration not stated): MP 114 °C (via OCHEM)
- Cl.N=C(CCCl)NS(N)(=O)=O: MP 134 °C (via eChemPortal)